According to patent US9725426B2, “Cystathionine-γ-lyase (CSE) inhibitors” (SOVA PHARMACEUTICALS, INC., priority 2012, dated 2017):
pIC50: −log10 of the molar value.

The chains behind the UniProt entries cited, without tags or fusion partners.
UniProt P32929, whole entry, looked up: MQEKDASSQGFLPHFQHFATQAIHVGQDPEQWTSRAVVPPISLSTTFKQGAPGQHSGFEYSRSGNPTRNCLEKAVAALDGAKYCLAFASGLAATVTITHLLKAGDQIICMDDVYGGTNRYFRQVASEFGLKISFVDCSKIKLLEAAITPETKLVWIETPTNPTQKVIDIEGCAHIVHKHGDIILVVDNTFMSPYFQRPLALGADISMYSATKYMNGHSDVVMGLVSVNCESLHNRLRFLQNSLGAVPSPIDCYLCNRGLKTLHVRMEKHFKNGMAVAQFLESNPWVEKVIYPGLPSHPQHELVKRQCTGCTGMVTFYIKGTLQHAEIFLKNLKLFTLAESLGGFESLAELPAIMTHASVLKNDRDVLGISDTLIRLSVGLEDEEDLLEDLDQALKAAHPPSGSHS

Biological target: human, mouse or rat recombinant CSE (Homo sapiens, UniProt P32929)
Assay: CSE in vitro assay (H2S generation from DL-homocysteine, absorbance at 671 nm)
Conditions: Table 1, 30 min preincubation, DL-homocysteine substrate, 3 h at 37 C

`NN(CCCc1nnn[nH]1)c1nnn[nH]1` gave a pIC50 of 4.00 to 5.00.
